1 substance from patent US20110117026A1, “METHODS AND COMPOSITIONS FOR THE DELIVERY OF BIOACTIVE COMPOUNDS” (priority 2008, published 2011) can be followed below.

The assay deals with T1, recombinant caspase 3 (Homo sapiens, UniProt P42574).
T1 sequence (P42574 29-175 limits assumed): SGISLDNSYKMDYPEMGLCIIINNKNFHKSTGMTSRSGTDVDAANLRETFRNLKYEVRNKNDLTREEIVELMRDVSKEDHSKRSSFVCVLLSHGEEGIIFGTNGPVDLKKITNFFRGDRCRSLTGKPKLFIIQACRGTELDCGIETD
T1 sequence (P42574 176-277 limits assumed): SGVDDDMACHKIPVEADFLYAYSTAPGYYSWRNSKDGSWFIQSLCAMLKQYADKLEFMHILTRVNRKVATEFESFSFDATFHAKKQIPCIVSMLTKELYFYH
The assay can be described thus: Cleavage of imaging peptide by caspase 3 (Cy5.5/Cy7 FRET, nanofluorometer). It counts as biochemical. Conditions: caspase-3 pre-incubated with 10 μM inhibitor for one hour. How it is done: FIG. 27A-27D show the emission spectra of the imaging peptide. The fluorescence emission profiles of untreated peptide (FIG. 27A), peptide treated with 60 units of caspase-3 for 2 hours (FIG. 27B), peptide treated with 0.1 mg BSA (FIG. 27C), and peptide treated with 60 units caspase-3 that was pre-incubated with 10 μM caspase-3 inhibitor for one hour (FIG. 27D) were measured with a nanofluorometer.
In these studies, an imaging reporter system was developed which will allow the detection of apoptotic cells in a targeted tumor in situ upon administration of a cytotoxic agent. A peptide comprising an anionic tetrapeptide DEVD motif (SEQ ID NO: 5), which contains the sequence recognized by the activated caspase 3 (Nicholson et al. (1995) Nature 376(6535):37-43) was used for this purpose. The imaging peptide Ac-KDEVDCDEVDKDEVDC (SEQ ID NO: 6) contains three tetrapeptide repeats (underlined) to increase the amount of negative charges in the peptide for improved entrapment during the self-assembly of LPH nanoparticles. N-terminal acetylation further decreases the positive charge content of the peptide. […] The latter property is important for the fluorescence resonance energy transfer (FRET) that occurs when the two probes are in close proximity to each other. […] The fluorescence spectrum of the peptide was recorded with a nanofluorometer which only requires a 2 μL sample volume. […]

With DEVD-CHO [reference compound], the “block of caspase 3 induced increase in Cy5.5/Cy7 ratio” value is “blocked”.
